According to US20120283274A1, “CRYSTALLINE FORMS OF SUBSTITUTED PYRAZOLOPYRIMIDINES” (priority 2009, published 2012):

Assay: Determination of aqueous solubility (HPLC)
Conditions: 23° C.

pH of the filtrate (filtrate of the aqueous suspension after 24 hours): 3.1
solid form after solubility test (FT-Raman compared with the spectrum before) (solid after 24 hours in water): no change in form
Solubility (suspended in water, 24 hours, concentration of the free base by HPLC): 0.02 mg/mL
Substance: co-crystal of (6-bromo-pyrazolo[1,5-a]pyrimidin-2-yl)-(1(R)-methyl-3,4-dihydro-1H-isoquinolin-2-yl)-methanone and succinic acid [Example 2a]
